The pIC50 is −log10 of the IC50, conventionally taken in molar units.

Amino acid sequences for entries named in this document (tags omitted). Residues count along the entry.
UniProt P23458, 849-1154 limits assumed: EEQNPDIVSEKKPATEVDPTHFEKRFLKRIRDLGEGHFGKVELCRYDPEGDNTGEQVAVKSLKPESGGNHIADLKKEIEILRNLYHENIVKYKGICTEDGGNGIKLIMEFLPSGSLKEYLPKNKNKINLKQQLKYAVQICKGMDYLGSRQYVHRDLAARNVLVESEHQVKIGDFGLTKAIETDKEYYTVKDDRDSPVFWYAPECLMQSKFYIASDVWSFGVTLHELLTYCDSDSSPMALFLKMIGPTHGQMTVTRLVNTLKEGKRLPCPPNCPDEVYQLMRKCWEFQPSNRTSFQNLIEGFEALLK
UniProt O60674, 828-1132 limits assumed: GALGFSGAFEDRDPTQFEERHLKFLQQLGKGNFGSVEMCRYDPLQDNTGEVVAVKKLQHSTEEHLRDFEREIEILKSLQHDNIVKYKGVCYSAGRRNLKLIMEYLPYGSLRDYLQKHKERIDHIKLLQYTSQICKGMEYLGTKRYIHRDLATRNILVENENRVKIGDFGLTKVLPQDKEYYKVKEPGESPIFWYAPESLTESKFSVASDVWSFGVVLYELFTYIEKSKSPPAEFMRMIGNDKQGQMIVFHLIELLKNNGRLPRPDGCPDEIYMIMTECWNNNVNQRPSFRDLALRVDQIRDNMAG

pIC50: −log10 of the molar value. Read-outs that look alike come from different tables or passages of the source. Some results are limits rather than exact numbers.

The values below come from US8716303B2, “N-(hetero)aryl-pyrrolidine derivatives of pyrazol-4-yl-pyrrolo[2,3-d]pyrimidines and pyrrol-3-yl-pyrrolo[2,3-d]pyrimidines as janus kinase inhibitors” (Incyte Corporation, priority 2009, dated 2014).

The target of test [1] is human JAK1 (a.a. 837-1142) (Homo sapiens, UniProt P23458). The test is described as follows: In vitro JAK kinase assay (HTRF, phosphorylation of a biotinylated peptide), JAK1. Particulars: read-out: JAK1 IC50, Assay Conditions 1 mM ATP. As to the method:
(§1) Compounds herein were tested for inhibitory activity of JAK targets according to the following in vitro assay described in Park et al., Analytical Biochemistry 1999, 269, 94-104. The catalytic domains of human JAK1 (a.a. 837-1142), Jak2 (a.a. 828-1132) and Jak3 (a.a. 781-1124) with an N-terminal His tag were expressed using baculovirus in insect cells and purified. The catalytic activity of JAK1, JAK2 or JAK3 was assayed by measuring the phosphorylation of a biotinylated peptide. The phosphorylated peptide was detected by homogenous time resolved fluorescence (HTRF). IC50s of compounds were measured for each kinase in the 40 microL reactions that contain the enzyme, ATP and 500 nM peptide in 50 mM Tris (pH 7.8) buffer with 100 mM NaCl, 5 mM DTT, and 0.1 mg/mL (0.01%) BSA. The ATP concentration in the reactions was 90 μM for Jak1, 30 μM for Jak2 and 3 μM for Jak3 for Km conditions. For the 1 mM IC50 measurements, ATP concentration in the reactions was 1 mM. Reactions were carried out at RT for 1 h and then stopped with 20 μL 45 mM EDTA, 300 nM SA-APC, 6 nM Eu-Py20 in assay buffer (Perkin Elmer, Boston, Mass.). Binding to the Europium labeled antibody took place for 40 min and HTRF signal was measured on a Fusion plate reader (Perkin Elmer, Boston, Mass.).
(§2) Compounds herein were tested for inhibitory activity of JAK1 and JAK2 targets according to the assay of Example A (experiments run at Km or 1 mM as indicated). The symbol “+” indicates an IC50<50 nM; the symbol “++” indicates an IC50≧50 and ≦100 nM; and the symbol “+++” indicates an IC50>100 and ≦500 nM.

A further test addresses Jak2 (a.a. 828-1132) (Homo sapiens, UniProt O60674). The test is described as follows: In vitro JAK kinase assay (HTRF, phosphorylation of a biotinylated peptide), JAK2, reported as JAK2/JAK1 ratio. The note with it: Assay Conditions 1 mM ATP. On the procedure:
as §1, §2
In general terms: Time-resolved FRET reads energy transfer from a long-lived donor to a nearby acceptor.

On to `N#CCC(C1CCN(c2ccnnc2C#N)C1)n1ccc(-c2ncnc3[nH]ccc23)c1` (centres unmarked), for which the pIC50 in test [1] (tested form: trifluoroacetate) was more than 7.30. The “JAK2/JAK1 IC50 ratio” value on Jak2 (a.a. 828-1132) (tested form: trifluoroacetate) is 8.7.
The corresponding values for `N#CCC(C1CCN(c2ncccc2C#N)C1)n1ccc(-c2ncnc3[nH]ccc23)c1` (single isomer, unassigned) are more than 7.30 and 4.9.
On to `N#CCC(C1CCN(c2nccnc2C#N)C1)n1ccc(-c2ncnc3[nH]ccc23)c1` (single isomer, unassigned), for which the pIC50 in test [1] (tested form: trifluoroacetate) is more than 7.30. Further, the “JAK2/JAK1 IC50 ratio” value on Jak2 (a.a. 828-1132) (tested form: trifluoroacetate) was determined as 9.3.
Consider `N#Cc1ncsc1N1CCC(C(CF)n2ccc(-c3ncnc4[nH]ccc34)c2)C1` (single isomer, unassigned), for which the pIC50 in test [1] was more than 7.30. Further, the “JAK2/JAK1 IC50 ratio” value at Jak2 (a.a. 828-1132) was found to be 11.3.
